# Source: patent US20210009630A1, “CYCLIC DINUCLEOTIDES AS STING AGONISTS” (Janssen Biotech, Inc., priority 2017, published 2021)
# By UniProt entry, the sequences of proteins in these tests, tags left out. Residues count along the entry.
# UniProt Q86WV6, 139-379 H232R limits assumed: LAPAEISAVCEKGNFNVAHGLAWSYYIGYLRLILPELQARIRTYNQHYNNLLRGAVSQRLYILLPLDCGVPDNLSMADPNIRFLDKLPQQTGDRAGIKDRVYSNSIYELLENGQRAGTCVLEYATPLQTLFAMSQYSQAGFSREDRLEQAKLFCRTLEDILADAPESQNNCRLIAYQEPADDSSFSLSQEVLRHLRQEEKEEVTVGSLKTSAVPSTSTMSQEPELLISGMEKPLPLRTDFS
# pEC50, pIC50: −log10 of the molar value.
# Assays:
# [1] = test system: human STING pathway (THP1-ISG cells); experiment: STING human cell reporter assay; conditions: read-out: human cell reporter EC50, IRF-inducible SEAP reporter, 24 h, means of at least three values, tested form: Na salt
# Protocol: Agonism of the human STING pathway is assessed in THP1-ISG cells (Invivogen, cat #thp-isg) derived from human THP1 monocyte cell line by stable integration of an interferon regulatory factor (IRF)-inducible SEAP reporter construct. THP1-Blue ISG cells express a secreted embryonic alkaline phosphatase (SEAP) reporter gene under the control of an ISG54 minimal promoter in conjunction with five interferon (IFN)-stimulated response elements. As a result, THP1-Blue ISG cells allow the monitoring of IRF activation by determining the activity of SEAP. The levels of IRF-induced SEAP in the cell culture supernatant are readily assessed with alkaline phosphatase detection medium, a SEAP detection reagent. These cells are resistant to Zeocin. 2′3′cGAMP was used as a positive control in this assay. To run the assay, 60,000 cells were dispensed in 30 μL/well of a white, opaque bottom tissue culture treated 384-well plate.
# Test compounds were added in a volume of 10 μL (1% DMSO final concentration). Compounds are initially prepared in 100% DMSO, spotted on an compound dilution plate and then diluted in media prior to transfer. The assay was incubated for 24 h at 37° C., 5% CO2 then plates were centrifuged at 1200 rpm (120×g) for 5 min. After final incubation, 90 μL of alkaline phosphatase detection medium-substrate was added to each well of a new 384-well clear plate and 10 μL of the cell supernatant was transferred from the assay plate to the new alkaline phosphatase detection medium-plate using a Biomek FX and mixed 4 times. Plates were incubated at RT for 20 min then absorbance at 655 nm was determined on the Tecan Safire2.
# [2] = target: human STING (biotinylated STING protein, residues 139-379 of Q86WV6, H232R) (Homo sapiens, UniProt Q86WV6, H232R); experiment: STING SPA binding assay; conditions: read-out: hSTING SPA IC50; displacement of [3H]-2′3′-cGAMP from biotin-STING; means of at least three values; tested form: Na salt
# [3] = test system: THP1-Blue ISG cells (IFN-β secretion); experiment: Human interferon-β induction assay; conditions: total cumulative IFN-β induction over the dose range tested (0.78 to 50 uM) in THP-1 cells after a 24 hour exposure; tested form: Na salt
# Protocol: THP1-Blue ISG cells are used to measure the secretion of IFN-β into the culture supernatant following STING pathway activation. To run the assay, anti-IFN-β capture antibodies were coated on […] well MultiArray plates (Mesoscale Discovery). After a one hour incubation, plates were washed and 50 μL supernatant from the STING human cell reporter assay plates or IFN-β standards were mixed with 20 μL Sulfotag-conjugated detection antibody in the coated plates. Plates were incubated, shaking for 2 h, washed, and read buffer was applied. Electrochemiluminescence was measured on the SectorImager.
pEC50 [1],pIC50 [2],Structure (SMILES),human IFN-β (ranking value) [3] [pg/mL]
6.77,6.41,Nc1nc2c(ncn2[C@@H]2O[C@@H]3COP(=O)(O)O[C@H]4[C@@H](F)[C@H](n5cnc6c(N)ncnc65)O[C@@H]4CNS(=O)(=O)O[C@@H]2C3)c(=O)[nH]1,
7.28,6.54,Nc1nc2c(ncn2[C@@H]2O[C@@H]3COP(=O)(O)O[C@H]4[C@H](F)[C@H](n5cnc6c(N)ncnc65)O[C@@H]4CNS(=O)(=O)O[C@@H]2[C@@H]3F)c(=O)[nH]1,16254
,6.49,CO[C@H]1[C@H]2NS(=O)(=O)OC[C@H]3O[C@@H](n4cnc5c(=O)[nH]cnc54)[C@H](F)[C@@H]3OP(=O)(O)OC[C@H]1O[C@H]2n1cnc2c(=O)[nH]c(N)nc21,18191
5.74,4.12,Nc1nc2c(nnn2[C@@H]2O[C@@H]3COP(=O)(O)O[C@H]4[C@H](F)[C@H](n5cnc6c(N)ncnc65)O[C@@H]4CNS(=O)(=O)O[C@@H]2C3)c(=O)[nH]1,
5.18,< 4.00,Nc1ncnc2c1ncn2[C@@H]1O[C@@H]2CNS(=O)(=O)O[C@@H]3[C@H](O)[C@@H](COP(=O)(O)O[C@H]2[C@H]1F)O[C@H]3c1cnc2c(N)ncnn12,
6.59,4.43,Nc1ncnc2c1ncn2[C@@H]1O[C@@H]2CNS(=O)(=O)O[C@@H]3[C@H](O)[C@@H](COP(=O)(O)O[C@H]2[C@H]1F)O[C@H]3n1cnc2cncnc21,
5.62,4.93,CO[C@H]1[C@H]2OS(=O)(=O)NC[C@H]3C[C@@H](n4ccc5c(N)ncnc54)[C@H](O)[C@@H]3OP(=O)(O)OC[C@H]1O[C@H]2n1cnc2c(=O)[nH]c(N)nc21,5539

Structure (SMILES),pEC50 [1],pIC50 [2],human IFN-β (ranking value) [3] [pg/mL]
Nc1ncnc2c1ncn2[C@@H]1O[C@@H]2CNS(=O)(=O)O[C@@H]3[C@H](F)[C@@H](COP(=O)(O)O[C@H]2[C@H]1F)O[C@H]3n1cnc2c(N)ncnc21,7.60,5.37,
